{"source": "paper PMC3785825", "about": "(Journal of the Royal Society Interface, 2013)", "key": {"[1]": {"system": "CLR T288A/RAMP1 (CGRP receptor)", "experiment": "CGRP-stimulated cAMP (LANCE), T288A mutant", "format": "cell-based, human", "source_text": "(§1) Curve fitting was done with […]\n(§2) These residues were selected as they are most likely to incorporate the whole of ECL2 and approximately one turn of helices 4 and 5 immediately adjacent to the loop, based on our previous analysis. […] These are R274A, Y278A, D280A, C282A, W283A, I284A and T288A."}, "[2]": {"system": "CLR S285A/RAMP1 (CGRP receptor)", "experiment": "CGRP-stimulated cAMP (LANCE), S285A mutant", "format": "cell-based, human", "settings": "residue S285; effect of alanine mutation on CGRP", "source_text": "as §1, §2"}, "[3]": {"system": "CLR W283A/RAMP1 (CGRP receptor)", "experiment": "CGRP-stimulated cAMP (LANCE), W283A mutant", "format": "cell-based, human", "source_text": "as §1, §2"}, "[4]": {"system": "CLR A273L/RAMP1 (CGRP receptor)", "experiment": "CGRP-stimulated cAMP (LANCE), A273L mutant", "format": "cell-based, human", "settings": "residue A273 (mutated to leucine); effect of mutation on CGRP", "source_text": "as §1, §2"}, "[5]": {"system": "CLR L291A/RAMP1 (CGRP receptor)", "experiment": "CGRP-stimulated cAMP (LANCE), L291A mutant", "format": "cell-based, human", "source_text": "as §1, §2"}, "[6]": {"system": "CLR I294A/RAMP1 (CGRP receptor)", "experiment": "CGRP-stimulated cAMP (LANCE), I294A mutant", "format": "cell-based, human", "settings": "Cos 7 cells", "source_text": "as §1, §2"}, "[7]": {"system": "mutated CGRP receptors (CLR ECL2 mutants/RAMP1)", "experiment": "CGRP radioligand binding, mutants with impaired cAMP", "settings": "[^125I] iodohistidyl-human alpha CGRP, Cos 7 cell membranes; mutants with large impairments of cAMP production", "source_text": "(§3) Accordingly, an ELISA to measure receptors at the cell surface was used (see the electronic supplementary materials, table S3). All of the mutants were expressed at the cell surface to within approximately 60% of WT levels. Reductions to this level of expression has been previously shown to have little effect on the potency of CGRP-mediated cAMP signalling for this or CTR expressed in Cos 7 cells and in this study, there was only a very low correlation between expression and pEC50 (r^2 = 0.23)."}, "[8]": {"system": "CLR Y277A/RAMP1 (CGRP receptor)", "experiment": "CGRP radioligand binding, Y277A mutant", "settings": "Y277A: not reduced (exception); [^125I] iodohistidyl-human alpha CGRP, Cos 7 cell membranes", "source_text": "as §3"}, "[9]": {"system": "CLR ECL2 mutants A271 to I294 with human RAMP1", "experiment": "CGRP-stimulated cAMP (LANCE), ECL2 alanine scan", "format": "cell-based", "settings": "Cos 7 cells", "source_text": "as §1, §2"}, "[10]": {"system": "CLR C282A/RAMP1 (CGRP receptor)", "experiment": "CGRP-stimulated cAMP (LANCE), C282A mutant", "format": "cell-based, human", "source_text": "as §1, §2"}, "[11]": {"system": "CLR L290A/RAMP1 (CGRP receptor)", "experiment": "CGRP-stimulated cAMP (LANCE), L290A mutant", "format": "cell-based, human", "source_text": "as §1, §2"}, "[12]": {"system": "CLR Y277A/RAMP1 (CGRP receptor)", "experiment": "CGRP-stimulated cAMP (LANCE), Y277A mutant", "format": "cell-based, human", "settings": "residue Y277; effect of alanine mutation on CGRP", "source_text": "as §1, §2"}, "[13]": {"system": "CLR D280A/RAMP1 (CGRP receptor)", "experiment": "CGRP-stimulated cAMP (LANCE), D280A mutant", "format": "cell-based, human", "source_text": "as §1, §2"}, "[14]": {"system": "CLR N281A/RAMP1 (CGRP receptor)", "experiment": "CGRP-stimulated cAMP (LANCE), N281A mutant", "format": "cell-based, human", "settings": "Cos 7 cells", "source_text": "as §1, §2"}, "[15]": {"system": "CLR R274A/RAMP1 (CGRP receptor)", "experiment": "CGRP-stimulated cAMP (LANCE), R274A mutant", "format": "cell-based, human", "source_text": "as §1, §2"}, "[16]": {"system": "CLR D287A/RAMP1 (CGRP receptor)", "experiment": "CGRP-stimulated cAMP (LANCE), D287A mutant", "format": "cell-based, human", "settings": "residue D287; effect of alanine mutation on CGRP", "source_text": "as §1, §2"}, "[17]": {"system": "CLR Y292A/RAMP1 (CGRP receptor)", "experiment": "CGRP-stimulated cAMP (LANCE), Y292A mutant", "format": "cell-based, human", "settings": "Cos 7 cells", "source_text": "as §1, §2"}, "[18]": {"system": "CLR I284A/RAMP1 (CGRP receptor)", "experiment": "CGRP-stimulated cAMP (LANCE), I284A mutant", "format": "cell-based, human", "source_text": "as §1, §2"}, "[19]": {"system": "CLR Y278A/RAMP1 (CGRP receptor)", "experiment": "CGRP-stimulated cAMP (LANCE), Y278A mutant", "format": "cell-based, human", "source_text": "as §1, §2"}}, "data": [{"substance": "calcitonin gene-related peptide [CGRP]", "values": [{"measurement": "cAMP reduction versus WT (pEC50)", "setting": "[1]; T288A, Cos 7 cells, 30 min, room temperature", "result": "more than 10 fold"}, {"measurement": "CGRP effect", "setting": "[1]; residue T288, effect of alanine mutation on CGRP", "result": "√"}, {"measurement": "CGRP effect", "setting": "[2]", "result": "√"}, {"measurement": "cAMP reduction versus WT (pEC50)", "setting": "[3]; W283A, Cos 7 cells, 30 min, room temperature", "result": "more than 10 fold"}, {"measurement": "CGRP effect", "setting": "[3]; residue W283, effect of alanine mutation on CGRP", "result": "√"}, {"measurement": "CGRP effect", "setting": "[4]", "result": "√"}, {"measurement": "reduction in EC50 values versus WT", "setting": "[5]; L291A, Cos 7 cells", "result": "approx. fourfold"}, {"measurement": "CGRP effect", "setting": "[5]; residue L291, effect of alanine mutation on CGRP", "result": "√"}, {"measurement": "maximal cAMP response (Emax) versus WT", "setting": "[6]", "result": "significant but small increases in maximal cAMP response"}, {"measurement": "affinity for the radioligand", "setting": "[7]", "result": "reduced affinity for the radioligand"}, {"measurement": "affinity for the radioligand", "setting": "[8]", "result": "except Y277A"}, {"measurement": "pEC50 of mutants versus WT", "setting": "[9]; 24 single mutants", "result": "14 of the 24 mutants were significantly different to WT"}, {"measurement": "pEC50 change versus WT", "setting": "[9]; six further mutants (not given)", "result": "small but significant reductions in pEC50"}, {"measurement": "cAMP reduction versus WT (pEC50)", "setting": "[10]; C282A, Cos 7 cells, 30 min, room temperature", "result": "more than 10 fold"}, {"measurement": "CGRP effect", "setting": "[10]; residue C282, effect of alanine mutation on CGRP", "result": "√"}, {"measurement": "reduction in EC50 values versus WT", "setting": "[11]; L290A, Cos 7 cells", "result": "approx. eightfold"}, {"measurement": "CGRP effect", "setting": "[11]; residue L290, effect of alanine mutation on CGRP", "result": "√"}, {"measurement": "CGRP effect", "setting": "[12]", "result": "√"}, {"measurement": "cAMP reduction versus WT (pEC50)", "setting": "[13]; D280A, Cos 7 cells, 30 min, room temperature", "result": "more than 10 fold"}, {"measurement": "CGRP effect", "setting": "[13]; residue D280, effect of alanine mutation on CGRP", "result": "√"}, {"measurement": "potency change versus WT", "setting": "[14]", "result": "small increase in potency"}, {"measurement": "cAMP reduction versus WT (pEC50)", "setting": "[15]; R274A, Cos 7 cells, 30 min, room temperature", "result": "more than 10 fold"}, {"measurement": "CGRP effect", "setting": "[15]; residue R274, effect of alanine mutation on CGRP", "result": "√"}, {"measurement": "CGRP effect", "setting": "[16]", "result": "√"}, {"measurement": "maximal cAMP response (Emax) versus WT", "setting": "[17]", "result": "significant but small increases in maximal cAMP response"}, {"measurement": "cAMP reduction versus WT (pEC50)", "setting": "[18]; I284A, Cos 7 cells, 30 min, room temperature", "result": "more than 10 fold"}, {"measurement": "CGRP effect", "setting": "[18]; residue I284, effect of alanine mutation on CGRP", "result": "√"}, {"measurement": "cAMP reduction versus WT (pEC50)", "setting": "[19]; Y278A, Cos 7 cells, 30 min, room temperature", "result": "more than 10 fold"}, {"measurement": "CGRP effect", "setting": "[19]; residue Y278, effect of alanine mutation on CGRP", "result": "√"}]}]}
